According to publication PMC3834829 (2013):

B1: LexA-BCL11A-(651–670) [not stated] / AAD-TLX-LBD-(100–385) [not stated] (parent complex)
chain 1: NTENVYSQWLAGYAASRQLK
chain 2: RKQVALYFRGHKEENGAAAHFPSAALPAPAFFTAVTQLEPHGLELAAVSTTPERQTLVSLAQPTPKYPHEVNGTPMYLYEVATESVCESAARLLFMSIKWAKSVPAFSTLSLQDQLMLLEDAWRELFVLGIAQWAIPVDANTLLAVSGMNGDNTDSQKLNKIISEIQALQEVVARFRQLRLDATEFACLKCIVTFKAVPTHSGSELRSFRNAAAIAALQDEAQLTLNSYIHTRYPTQPCRFGKLLLLLPALRSISPSTIEEVFFKKTIGNVPITRLLSDMYKSSDI
B2: LexA-BCL11A-(310–325) [not stated] / AAD-TLX-LBD-(100–385) [not stated] (parent complex)
chain 1: PPAMDFSRRLRELAGN
chain 2: B1 chain 2
B3: LexA-NSD1-(790–818) [not stated] / AAD-TLX-LBD-(100–385) [not stated] (parent complex)
chain 1: SSQNHIPIEPDYKFSTLLMMLKDMHDSKT
chain 2: B1 chain 2

Variants of: B1
Assay: yeast two-hybrid; read off a plot

| Variant | response |
| --- | --- |
| chain 1 S7A | ~2100 nmol/mg/min |
| chain 1 L10A | ~0 nmol/mg/min |
| chain 1 Q8A | ~1900 nmol/mg/min |
| chain 1 Y6A | ~220 nmol/mg/min |
| chain 1 Y13A | ~480 nmol/mg/min |
| chain 1 W9A | ~2000 nmol/mg/min |
| chain 1 V5A | ~1800 nmol/mg/min |
| chain 1 G12A | ~1800 nmol/mg/min |

Variants of: B2
Assay: yeast two-hybrid; read off a plot

| Variant | response |
| --- | --- |
| chain 1 S7A | ~1900 nmol/mg/min |
| chain 1 R8A | ~1300 nmol/mg/min |
| chain 1 L10A | ~0 nmol/mg/min |
| chain 1 L13A | ~0 nmol/mg/min |
| chain 1 F6A | ~0 nmol/mg/min |
| chain 1 R11A | ~980 nmol/mg/min |

Variants of: B3
Assay: yeast two-hybrid; read off a plot

| Variant | response |
| --- | --- |
| chain 1 D23A | ~1100 nmol/mg/min |
| chain 1 Y12A | ~690 nmol/mg/min |
| chain 1 L18A | ~0 nmol/mg/min |
| chain 1 M20A | ~210 nmol/mg/min |
| chain 1 M19A | ~1000 nmol/mg/min |
| chain 1 L21A | ~0 nmol/mg/min |
| chain 1 K22A | ~1300 nmol/mg/min |
| chain 1 S15A | ~0 nmol/mg/min |
| chain 1 K13A | ~1400 nmol/mg/min |
| chain 1 F14A | ~0 nmol/mg/min |
| chain 1 L17A | ~0 nmol/mg/min |
